Measured values reported in PMC12264551 (Molecular Pharmacology, 2025).

Target: T1, PAC1R (Homo sapiens, UniProt P41586)
T1 construct: host or cells: COS-7
T1 sequence (P41586 21-468): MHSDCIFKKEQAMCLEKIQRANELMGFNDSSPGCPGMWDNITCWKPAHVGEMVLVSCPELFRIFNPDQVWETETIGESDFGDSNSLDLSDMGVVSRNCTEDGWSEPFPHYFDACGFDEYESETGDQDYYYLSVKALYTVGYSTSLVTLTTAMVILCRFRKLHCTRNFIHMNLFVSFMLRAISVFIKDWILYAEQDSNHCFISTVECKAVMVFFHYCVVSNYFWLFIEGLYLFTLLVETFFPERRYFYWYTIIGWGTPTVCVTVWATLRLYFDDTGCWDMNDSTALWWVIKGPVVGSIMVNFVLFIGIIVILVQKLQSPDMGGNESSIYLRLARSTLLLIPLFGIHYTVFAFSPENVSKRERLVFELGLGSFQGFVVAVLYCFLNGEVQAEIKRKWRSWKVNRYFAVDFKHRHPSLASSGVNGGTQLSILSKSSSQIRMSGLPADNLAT
Assay: Live cell cAMP accumulation (GloSensor), COS-7 cells transfected with PAC1R
Format: cell-based
Settings: PACAP + vehicle, Fig. 6B, fraction of greatest slope, ± SEM, n = 3-5

## CC[C@H](C)[C@H](NC(=O)CNC(=O)[C@H](CC(=O)O)NC(=O)[C@H](CO)NC(=O)[C@@H](N)Cc1c[nH]cn1)C(=O)N[C@@H](Cc1ccccc1)C(=O)N[C@H](C(=O)N[C@@H](CC(=O)O)C(=O)N[C@@H](CO)C(=O)N[C@@H](Cc1ccc(O)cc1)C(=O)N[C@@H](CO)C(=O)N[C@@H](CCCNC(=N)N)C(=O)N[C@@H](Cc1ccc(O)cc1)C(=O)N[C@@H](CCCNC(=N)N)C(=O)N[C@@H](CCCCN)C(=O)N[C@@H](CCC(N)=O)C(=O)N[C@@H](CCSC)C(=O)N[C@@H](C)C(=O)N[C@H](C(=O)N[C@@H](CCCCN)C(=O)N[C@@H](CCCCN)C(=O)N[C@@H](Cc1ccc(O)cc1)C(=O)N[C@@H](CC(C)C)C(=O)N[C@@H](C)C(=O)N[C@@H](C)C(=O)N[C@H](C(=O)N[C@@H](CC(C)C)C(=O)NCC(=O)N[C@@H](CCCCN)C(=O)N[C@@H](CCCNC(=N)N)C(=O)N[C@@H](Cc1ccc(O)cc1)C(=O)N[C@@H](CCCCN)C(=O)N[C@@H](CCC(N)=O)C(=O)N[C@@H](CCCNC(=N)N)C(=O)N[C@H](C(=O)N[C@@H](CCCCN)C(=O)N[C@@H](CC(N)=O)C(=O)N[C@@H](CCCCN)C(N)=O)C(C)C)C(C)C)C(C)C)[C@@H](C)O [PACAP, pituitary adenylate cyclase–activating peptide]
  Normalized Maximum: 0.92 ± 0.02
